Assay: Glyburide solubility in intravenous dosing solutions
Format: physicochemical
Details: formulations of the present disclosure at three-fold higher concentrations

## COc1ccc(Cl)cc1C(=O)NCCc1ccc(S(=O)(=O)NC(=O)NC2CCCCC2)cc1 [glyburide, 5-chloro-N-(4-[N-(cyclohexylcarbamoyl)sulfamoyl]phenethyl)-2-methoxybenzamide]
  loss of glyburide due to precipitation or sorption: no detectable loss

From US20250170151A1 (REMEDY PHARMACEUTICALS, INC., priority 2022, published 2025)
